Experimental findings from patent US9539298B2, “Lissencephaly therapeutic agent” (OSAKA CITY UNIVERSITY, priority 2010, dated 2017) are described below.

Amino acid sequences for entries named in this document (tags omitted).
UniProt I3LQD3, entry or part of it: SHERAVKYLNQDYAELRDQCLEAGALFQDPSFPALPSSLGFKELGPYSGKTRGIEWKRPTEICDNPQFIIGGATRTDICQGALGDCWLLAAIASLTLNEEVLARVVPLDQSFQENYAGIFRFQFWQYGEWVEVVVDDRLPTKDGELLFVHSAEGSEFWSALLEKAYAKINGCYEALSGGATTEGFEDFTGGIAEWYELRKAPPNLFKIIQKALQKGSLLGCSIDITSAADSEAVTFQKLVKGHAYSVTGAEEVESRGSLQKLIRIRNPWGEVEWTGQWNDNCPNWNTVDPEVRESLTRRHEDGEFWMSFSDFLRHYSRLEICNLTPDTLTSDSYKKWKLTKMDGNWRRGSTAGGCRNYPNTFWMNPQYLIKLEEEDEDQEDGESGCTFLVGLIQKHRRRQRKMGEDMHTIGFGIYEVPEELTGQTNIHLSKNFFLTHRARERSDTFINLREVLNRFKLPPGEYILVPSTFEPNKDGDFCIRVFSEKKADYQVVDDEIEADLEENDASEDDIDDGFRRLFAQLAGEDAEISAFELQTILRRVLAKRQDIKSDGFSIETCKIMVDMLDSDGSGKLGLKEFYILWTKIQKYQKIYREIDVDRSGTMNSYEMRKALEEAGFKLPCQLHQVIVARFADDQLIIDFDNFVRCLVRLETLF

The target of this assay is m-calpain (derived from porcine kidney) (Sus scrofa, UniProt I3LQD3). Briefly: Measurement of inhibitory activity against m-calpain. It counts as biochemical. The conditions noted are these: casein substrate, 30° C., 60 minutes; read-out: enzyme inhibitory activities (μM) m-calpain. The protocol:
More specifically, 200 μL of a reaction solution containing 0.5 mg/mL casein, 50 mM Tris-HCl buffer (pH 7.4), 20 mM dithiothreitol and 1.0 nmol μ-calpain (derived from human red blood cells, Cosmo Bio Co., Ltd.) or m-calpain (derived from porcine kidney, Cosmo Bio Co., Ltd.) was added to individual 2.5 μL portions of DMSO solution containing a varying concentration of a test sample in a 96-well plate. Then, 50 μL of 20 mM aqueous calcium chloride was added thereto, and reaction was performed at 30° C. for 60 minutes. 100 μL of the reaction solution was transferred to another 96-well plate, and purified water (50 μL) and 50% aqueous solution (100 μL) of Protein Assay Dye Reagent (available from Bio-Rad Laboratories, Inc.; catalogue No. 500-600) were added thereto. […] The absorbance of a reaction mixture prepared in the same manner as mentioned above, except that a DMSO solution containing no sample was used as a control value; and the absorbance of a reaction mixture prepared in the same manner as mentioned above, except that a 1 mM aqueous EDTA solution (50 μL) was used in place of 20 mM aqueous calcium chloride, was used as a blank value. […] Inhibition rate (%){1−(measured value−blank test value)/(control value−blank test value)}×100
For `COCCOCCOC(=O)N[C@@H](CC(C)C)C(=O)NC(Cc1ccccc1)C(=O)C(N)=O` (mixture of isomers) [compound 23, ((1S)-1-((((1RS)-3-Amino-1-benzyl-2,3-dioxopropyl)amino)carbonyl)-3-methylbutyl)carbamic acid 5-methoxy-3-oxapentyl ester], the IC50 worked out at 0.18 µM.

Turning to `CCNC(=O)C(=O)[C@H](Cc1ccccc1)NC(=O)[C@H](CC(C)C)NC(=O)OCCOC` [compound 1, ((1S)-1-((((1S)-1-Benzyl-2,3-dioxo-3-(ethylamino)propyl)amino)carbonyl)-3-methylbutyl) carbamic acid 2-methoxyethyl ester], the IC50 is 0.11 µM.

Regarding `CCNC(=O)C(=O)[C@H](Cc1ccccc1)NC(=O)[C@H](CC(C)C)NC(=O)O[C@H]1CCOC1` [compound 2, ((1S)-1-((((1S)-1-Benzyl-2,3-dioxo-3-(ethylamino)propyl)amino)carbonyl)-3-methylbutyl)carbamic acid (3S)-tetrahydrofuran-3-yl ester], the IC50 turned out to be 0.11 µM. For `CCNC(=O)C(=O)[C@H](Cc1ccccc1)NC(=O)[C@H](CC(C)C)NC(=O)OC1CCOCC1` [compound 3, ((1S)-1-((((1S)-1-Benzyl-2,3-dioxo-3-(ethylamino)propyl)amino)carbonyl)-3-methylbutyl)carbamic acid tetrahydro-4H-pyran-4-yl ester], the IC50 is 0.16 µM.

In the case of `CC(C)C[C@H](NC(=O)O[C@H]1CCOC1)C(=O)N[C@@H](Cc1ccccc1)C(=O)C(=O)NC1CC1` [compound 5, ((1S)-1-((((1S)-1-Benzyl-3-(cyclopropylamino)-2,3-dioxopropyl)amino)carbonyl)-3-methylbutyl)carbamic acid (3S)-tetrahydrofuran-3-yl ester], the IC50 is 0.05 µM. As for `CC(C)C[C@H](NC(=O)OC1CCOCC1)C(=O)N[C@@H](Cc1ccccc1)C(=O)C(=O)NC1CC1` [compound 6, ((1S)-1-((((1S)-1-Benzyl-3-cyclopropylamino-2,3-dioxopropyl)amino)carbonyl)-3-methylbutyl)carbamic acid tetrahydro-4H-pyran-4-yl ester], the figure is 0.13 µM; as for `CCCNC(=O)C(=O)[C@H](Cc1ccccc1)NC(=O)[C@H](CC(C)C)NC(=O)OCCOC` [compound 7, ((1S)-1-((((1S)-1-Benzyl-2,3-dioxo-3-(propylamino)propyl)amino)carbonyl)-3-methylbutyl)carbamic acid 2-methoxyethyl ester], 0.07 µM.

Regarding `COCCOC(=O)N[C@@H](CC(C)C)C(=O)N[C@@H](Cc1ccccc1)C(=O)C(=O)NC1CCC1` [compound 8, ((1S)-1-((((1S)-1-Benzyl-2,3-dioxo-3-(cyclobutylamino)propyl)amino)carbonyl)-3-methylbutyl)carbamic acid 2-methoxyethyl ester], the IC50 was determined as 0.08 µM. As for `CCCCNC(=O)C(=O)[C@H](Cc1ccccc1)NC(=O)[C@H](CC(C)C)NC(=O)OCCOC` [compound 9, ((1S)-1-((((1S)-1-Benzyl-3-butylamino-2,3-dioxopropyl)amino)carbonyl)-3-methylbutyl)carbamic acid 2-methoxyethyl ester], the figure is 0.14 µM. As for `COCCOC(=O)N[C@@H](CC(C)C)C(=O)N[C@@H](Cc1ccccc1)C(=O)C(=O)NCC(F)(F)F` [compound 10, ((1S)-1-((((1S)-1-Benzyl-2,3-dioxo-3-(2,2,2-trifluoroethylamino)propyl)amino)carbonyl)-3-methylbutyl)carbamic acid 2-methoxyethyl ester], the figure is 0.34 µM. As for `COCCOC(=O)N[C@@H](CC(C)C)C(=O)N[C@@H](Cc1ccccc1)C(=O)C(=O)NC1Cc2ccccc2C1` [compound 11, ((1S)-1-((((1S)-1-Benzyl-2,3-dioxo-3-(2-indanylamino)propyl)amino)carbonyl)-3-methylbutyl)carbamic acid 2-methoxyethyl ester], the figure is 0.12 µM; as for `COCCNC(=O)C(=O)[C@H](Cc1ccccc1)NC(=O)[C@H](CC(C)C)NC(=O)OCCOC` [compound 12, ((1S)-1-((((1S)-1-Benzyl-2,3-dioxo-3-(2-methoxyethylamino)propyl)amino)carbonyl)-3-methylbutyl)carbamic acid 2-methoxyethyl ester], 0.11 µM; as for `CCNC(=O)C(=O)[C@H](CCc1ccccc1)NC(=O)[C@H](CC(C)C)NC(=O)OCCOC` [compound 13, ((1S)-1-((((1S)-2,3-Dioxo-3-ethylamino-1-(phenylethyl)propyl)amino)carbonyl)-3-methylbutyl)carbamic acid 2-methoxyethyl ester], 0.2 µM. `CCNC(=O)C(=O)[C@H](CCc1ccccc1)NC(=O)[C@H](CC(C)C)NC(=O)O[C@H]1CCOC1` [compound 14, ((1S)-1-((((1S)-2,3-Dioxo-3-ethylamino-1-(phenylethyl)propyl)amino)carbonyl)-3-methylbutyl)carbamic acid (3S)-tetrahydrofuran-3-yl ester]: the IC50 was 0.2 µM.

Take `COCCOC(=O)N[C@@H](CC(C)C)C(=O)N[C@@H](CCc1ccccc1)C(=O)C(=O)NC1CC1` [compound 15, ((1S)-1-((((1S)-2,3-Dioxo-3-cyclopropylamino-1-(phenylethyl)propyl)amino)carbonyl)-3-methylbutyl)carbamic acid 2-methoxyethyl ester]: the IC50 is 0.14 µM. As for `CC(C)C[C@H](NC(=O)O[C@H]1CCOC1)C(=O)N[C@@H](CCc1ccccc1)C(=O)C(=O)NC1CC1` [compound 16], the figure is 0.1 µM; as for `COCCOC(=O)N[C@@H](CC(C)C)C(=O)N[C@@H](CC(C)C)C(=O)C(=O)NCCOc1ccccc1` [compound 21, ((1S)-1-((((1S)-2,3-Dioxo-1-(2-methylpropyl)-3-(2-phenoxyethyl)aminopropyl)amino)carbonyl)-3-methylbutyl)carbamic acid 2-methoxyethyl ester], 0.11 µM; as for `COCCOCCOC(=O)N[C@@H](CC(C)C)C(=O)N[C@@H](CC(C)C)C(=O)C(=O)NCCOc1ccccc1` [compound 22, ((1S)-1-((((1S)-2,3-Dioxo-1-(2-methylpropyl)-3-(2-phenoxyethyl)aminopropyl)amino)carbonyl)-3-methylbutyl) carbamic acid 5-methoxy-3-oxapentyl ester], 0.16 µM. As for `CC(C)C[C@H](NC(=O)OCCc1ccccn1)C(=O)N[C@@H](Cc1ccccc1)C(=O)C(=O)NC1CC1` [compound 24, ((1S)-1-((((1S)-1-Benzyl-3-(cyclopropylamino)-2,3-dioxopropyl)amino)carbonyl)-3-methylbutyl)carbamic acid 2-(pyridin-2-yl)ethyl ester], the figure is 0.017 µM.
